# From ChEMBL document CHEMBL1124725, “Inhibition of steroid 5 alpha-reductase by unsaturated 3-carboxysteroids” (J Med Chem, 1990)
# Target: T1, 3-oxo-5-alpha-steroid 4-dehydrogenase 2 (Homo sapiens, UniProt P31213)
# T1 sequence (P31213 whole entry): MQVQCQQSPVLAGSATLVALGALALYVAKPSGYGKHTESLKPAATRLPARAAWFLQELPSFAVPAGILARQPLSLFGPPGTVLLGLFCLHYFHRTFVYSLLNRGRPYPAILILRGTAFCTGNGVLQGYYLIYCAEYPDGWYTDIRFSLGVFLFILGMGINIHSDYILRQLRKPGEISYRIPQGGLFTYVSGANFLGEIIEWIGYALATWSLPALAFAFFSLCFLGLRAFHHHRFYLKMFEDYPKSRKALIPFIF
# Assay: In vitro inhibition of Steroid 5-alpha-reductase in human prostatic tissue.
# Settings: read-out: Ki app
# In short: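 Microsomes from surgically derived benign hyperplastic human prostate. Incubation was in 50 mM sodium citrate, pH 5.0, with 400 μM NADPH at 37 °C for 20–30 min, with ≤20% of T consumed. The reaction was quenched with ethyl acetate, and the read-out was total 5α-reduced products (DHT + ADIOL). Ki,app came from Dixon plots, or IC50 if nonlinear; ranges span microsome preparations.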
structure (smiles),measurement,value
CC1=C2C=C(C(=O)O)CC[C@]2(C)C2CC[C@@]3(C)C(CC[C@@H]3C(=O)N(C(C)C)C(C)C)C2C1 (stereo partly specified),Ki,170 nM
